{
  "sequences": {"note": "Protein sequences, listed by entry. Tags and fused reporters are not part of them. Residues count along the entry.", "UniProt P08709, 61-212 limits assumed": "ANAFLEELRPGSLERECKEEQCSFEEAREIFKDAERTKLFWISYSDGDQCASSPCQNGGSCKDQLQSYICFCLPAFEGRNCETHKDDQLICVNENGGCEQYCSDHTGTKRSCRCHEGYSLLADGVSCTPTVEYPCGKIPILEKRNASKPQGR", "UniProt P08709, 213-466 limits assumed": "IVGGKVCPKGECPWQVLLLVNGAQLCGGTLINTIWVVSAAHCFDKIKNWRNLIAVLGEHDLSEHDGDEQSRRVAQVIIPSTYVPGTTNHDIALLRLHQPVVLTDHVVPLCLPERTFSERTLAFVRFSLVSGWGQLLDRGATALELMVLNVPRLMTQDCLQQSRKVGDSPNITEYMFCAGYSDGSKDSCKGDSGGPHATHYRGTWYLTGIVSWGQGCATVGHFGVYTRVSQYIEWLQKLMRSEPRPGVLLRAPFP", "UniProt P13726, 33-295 limits assumed": "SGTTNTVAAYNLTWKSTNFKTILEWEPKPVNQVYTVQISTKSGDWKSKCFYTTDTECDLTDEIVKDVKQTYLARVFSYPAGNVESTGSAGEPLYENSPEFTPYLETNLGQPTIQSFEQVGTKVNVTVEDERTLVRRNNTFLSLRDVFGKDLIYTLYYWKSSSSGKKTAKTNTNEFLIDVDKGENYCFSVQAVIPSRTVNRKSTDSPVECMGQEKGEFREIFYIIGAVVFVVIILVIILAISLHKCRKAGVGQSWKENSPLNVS"},
  "source": "BindingDB's records for doi:10.1016/j.ejmech.2018.01.067",
  "about": "(Hefei University of Technology, 2018)",
  "molecular_target": "Coagulation factor VII/Tissue factor (Homo sapiens, UniProt P08709+P13726)",
  "data": [
    {"smiles": "CC(C)Nc1ccc(-c2cccc(N)c2)c(CC(=O)NCc2ccc(C(=N)N)cc2)c1F", "note": "[2-[3-Amino-3-fluoro-4-(isopropylamino)-1,1-biphenyl-2-yl]-N-{4-[amino(imino)methyl]benzyl}acetamide]", "values": [
      {"measurement": "IC50", "value": 0.34, "unit": "µM"}
    ]}
  ]
}
